Data reported in PubChem BioAssay AID652197 (Broad Institute, 2013).
Only a part is listed here, and it is no random draw. The source made the active and inactive calls.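 Rule for the calls: active = mean replicate inhibition of at least 30%, or all replicates individually reaching that 30% level; inactive = mean below 30% and not every replicate reaching it.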

Amino acid sequences for entries named in this document (tags omitted). A change or cut given only in a name is not applied to a line headed by its entry.
UniProt Q9NZ08: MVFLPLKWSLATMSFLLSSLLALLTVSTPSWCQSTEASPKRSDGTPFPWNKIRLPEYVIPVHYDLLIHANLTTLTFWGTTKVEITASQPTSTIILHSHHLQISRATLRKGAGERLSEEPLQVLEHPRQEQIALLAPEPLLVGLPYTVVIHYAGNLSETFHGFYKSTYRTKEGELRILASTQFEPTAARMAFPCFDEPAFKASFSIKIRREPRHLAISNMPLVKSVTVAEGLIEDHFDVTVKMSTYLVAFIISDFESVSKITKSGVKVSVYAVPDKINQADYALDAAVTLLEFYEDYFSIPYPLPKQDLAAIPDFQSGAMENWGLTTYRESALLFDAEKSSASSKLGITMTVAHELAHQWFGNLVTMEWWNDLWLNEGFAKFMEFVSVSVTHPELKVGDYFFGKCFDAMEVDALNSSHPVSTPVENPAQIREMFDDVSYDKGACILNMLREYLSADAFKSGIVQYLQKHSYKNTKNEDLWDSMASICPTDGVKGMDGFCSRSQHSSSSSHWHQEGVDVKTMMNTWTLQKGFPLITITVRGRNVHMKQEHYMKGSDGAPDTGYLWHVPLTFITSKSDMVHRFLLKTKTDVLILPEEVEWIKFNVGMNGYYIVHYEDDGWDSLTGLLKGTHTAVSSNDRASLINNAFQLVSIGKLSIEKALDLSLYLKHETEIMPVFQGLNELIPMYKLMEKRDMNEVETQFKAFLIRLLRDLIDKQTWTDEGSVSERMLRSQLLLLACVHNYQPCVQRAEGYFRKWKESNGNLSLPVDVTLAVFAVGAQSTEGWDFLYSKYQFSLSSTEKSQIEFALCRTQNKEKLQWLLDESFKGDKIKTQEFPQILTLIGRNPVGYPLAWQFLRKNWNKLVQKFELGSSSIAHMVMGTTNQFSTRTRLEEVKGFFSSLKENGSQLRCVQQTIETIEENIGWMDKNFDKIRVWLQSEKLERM

Target: Endoplasmic reticulum aminopeptidase 1 (Homo sapiens) (UniProt Q9NZ08)
Assay: human ERAP1 aminopeptidase inhibitors, primary screen, biochemical, single point, plate reader (AID 652197);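 note: 0% = neutral control wells and 100% = L-leucinethiol positive control wells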
Details: recombinant ERAP1, Leu-AMC fluorescence, 60 min; at 10.7 µM; stronger effect = higher value

Structure (SMILES) | inhibition
CCCC1OP(=O)(Nc2ccccc2)OCC1CC (configuration not stated) | inactive: -2.43%
CN(C)C1(CNC(=O)c2ccc(S(C)(=O)=O)cc2)CCCCC1 | inactive: 1.9%
Cc1ccc(C(=O)OC2CN3CCC2CC3)cc1 (configuration not stated) | inactive: -1.25%
CC1CCC(C(C)C)C(OP(=O)(Nc2ccccn2)c2ccccc2)C1 (configuration not stated) | inactive: -2.08%
NS(=O)(=O)c1cccc(NC(=O)COC(=O)C(O)(c2ccccc2)c2ccccc2)c1 | inactive: 2.14%
O=[As](O)(c1cccs1)c1cccs1 | inactive: -0.614%
Nc1cccc([As](=O)(O)c2ccccc2)c1 | inactive: 2.02%
Cc1ccc(S(=O)(=O)N(CCCN)CCCc2c(C)nc(N)[nH]c2=O)cc1 | inactive: 7.57%
O=P(Nc1nc2ccccc2s1)(c1ccccc1)c1ccccc1 | inactive: 1.56%
C[C@H]1OP(=O)(Oc2ccccc2)[C@H](O)[C@H](O)[C@H]1N=[N+]=[N-] (some centres not stated) | inactive: 0.225%
Nc1ccc(CCCCOc2ccccc2)cc1 | inactive: 16.6%
COc1ccc(N)c([N+](=O)[O-])c1[N+](=O)[O-] | inactive: -0.48%
CN(C)C1(CNC(=O)c2ccc(Cl)c(S(N)(=O)=O)c2)CCCCC1 | inactive: -4.03%
O=P(Nc1ccccn1)(c1ccc(Br)cc1)c1ccc(Br)cc1 | inactive: 4.73%
C/C(N)=N\P(=O)(OCc1ccccc1)OCc1ccccc1 | inactive: -0.749%
Nc1ccc([As](=O)(O)c2ccc([N+](=O)[O-])cc2)cc1 | inactive: -4.03%
C(Cc1nn[nH]n1)Cc1nn[nH]n1 | inactive: -4.09%
CC(=O)NC(SC(=S)N(C)C)C(Cl)(Cl)Cl (configuration not stated) | inactive: 1.65%
CCc1cc(O)c([N+](=O)[O-])c(C)c1[N+](=O)[O-] | inactive: -3.18%
CC(C)(C)C(=O)NC(Sc1ccccc1)C(Cl)(Cl)Cl (configuration not stated) | inactive: 1.28%
CCOc1ccc(C2=NCC(CBr)S2)cc1 (configuration not stated) | inactive: -2.15%
CC(=O)Nc1ccc([As](=O)(O)O)c(O)c1 | inactive: -4.65%
N#C/C(=C\c1ccc(N(CCBr)CCBr)cc1)C(N)=O | inactive: 4.45%
CC(=O)c1ccc(N2CC2c2ccncc2)cc1 (configuration not stated) | inactive: -0.86%

Structure (SMILES) | inhibition
COC(=O)C1(C)COP(=O)(NCc2ccccc2)OC1 (configuration not stated) | inactive: -1.25%
Cc1ccccc1CN(C)C(=O)COC(=O)C(O)(c1ccccc1)c1ccccc1 | inactive: 1.84%
C[C@@H]1C=CCP(=O)(Oc2ccccc2)O1 (some centres not stated) | inactive: -1.51%
C[C@H]1OP(=O)(Oc2ccccc2)C[C@@H]2O[C@@H]21 (some centres not stated) | inactive: -1.76%
O=P1(N(CCCl)CCCl)OCCC2CCCCN21 (configuration not stated) | inactive: -1.49%
O=C(NC1CCS(=O)(=O)C1)NP(=S)(Oc1ccccc1)Oc1ccccc1 (configuration not stated) | inactive: -2.01%
CCNC(=S)/N=C(\N)N[N+](=O)[O-] | inactive: -3.44%
c1ccc(-c2nn[nH]n2)c(-c2nn[nH]n2)c1 | inactive: -3.44%
Cc1ccc(NP(=O)(Oc2cccc(C)c2)Oc2cccc(C)c2)nc1 | inactive: -1.29%
CC(NC(=O)COC(=O)C(O)(c1ccccc1)c1ccccc1)c1ccccc1 (configuration not stated) | inactive: 1.65%
O=c1c2cc([N+](=O)[O-])ccc2[nH]c2c([N+](=O)[O-])cc([N+](=O)[O-])cc12 | inactive: 3.9%
Cc1ccc(OP(=O)(Nc2ccccn2)Oc2ccc(C)cc2)cc1 | inactive: 14.1%
O=C(OC1CN2CCC1CC2)c1ccccc1 (configuration not stated) | inactive: -1.39%
CN(C(=O)Cc1ccc(Cl)c(Cl)c1)[C@H]1CCCC[C@@H]1N1CCCC1 | inactive: -1.56%
Cc1ccc(NP(=O)(Oc2ccccc2F)Oc2ccccc2F)nc1 | inactive: 13.8%
CCn1c(=O)n(C2CCN(CC3CCCCCCC3)C[C@H]2CO)c2ccccc21 (some centres not stated) | inactive: -10.4%
O=C(O)c1ccccc1[As](=O)(O)O | inactive: -0.508%
CC(=O)Nc1ccc([As](=O)(O)O)cc1 | inactive: -1.34%
CCCC1OP(N)(=O)OCC1CC (configuration not stated) | inactive: -0.285%
CN(C)P(=O)(N(C)C)n1c(Nc2ccccc2)nnc1-c1ccccc1 | inactive: 2.86%
O=P(Nc1nc2ccc(Cl)cc2s1)(c1ccccc1)c1ccccc1 | inactive: 8.96%
CN(C(=O)Cc1ccccc1)C1CC[C@@]2(CCCO2)C[C@@H]1N1CCCC1 (some centres not stated) | inactive: -3.85%
Nc1cccc2ccc([As](=O)(O)O)cc12 | inactive: 3.18%
COc1ccccc1OP(=O)(Nc1ccc(C)cn1)Oc1ccccc1OC | inactive: -6.33%

Structure (SMILES) | inhibition
Cc1ccc(OP(=O)(Nc2nccs2)Oc2ccc(C)cc2)cc1 | inactive: 1.4%
Clc1ccc(Cl)c(NC2=NCC(CBr)S2)c1 (configuration not stated) | inactive: -5.65%
NC(=O)c1cc([N+](=O)[O-])cc([N+](=O)[O-])c1N | inactive: 0.924%
CN(C(=O)Cc1ccc(Cl)c(Cl)c1)[C@H]1CCCC[C@H]1N1CCCC1 | inactive: -2.87%
Cc1ccc(N/C(=N/P(=O)(N2CCOCC2)N2CCOCC2)N2CCOCC2)cc1 | inactive: -0.883%
CC(C)CC(=O)NC(Sc1ccc(Cl)cc1)C(Cl)(Cl)Cl (configuration not stated) | inactive: -1.42%
Nc1cc(N)c2nonc2c1[N+](=O)[O-] | inactive: 1.93%
O=C(NC(Sc1ccncn1)C(Cl)(Cl)Cl)c1ccccc1 (configuration not stated) | inactive: -3.06%
Cc1ccc(NP(=O)(Oc2ccccc2)Oc2ccccc2)nc1 | inactive: -2.94%
O=[N+]([O-])c1cc([N+](=O)[O-])c(CCNc2ccccc2)c([N+](=O)[O-])c1 | inactive: 4.75%
COc1ccc(C2=NCC(CBr)S2)cc1 (configuration not stated) | inactive: -0.377%
CC(C)=N/N=C(\N)N[N+](=O)[O-] | inactive: -0.523%
CC(C)c1nc(Nc2ccccc2)n(P(=O)(N(C)C)N(C)C)n1 | inactive: -2.76%
c1cc(-c2nn[nH]n2)ccc1-c1nn[nH]n1 | inactive: -3.15%
Nc1ccc([As](=O)(O)c2ccc(N)cc2)cc1 | inactive: -2.23%
C[N+]1=C2C=CC=CC=C2SC12C([N+](=O)[O-])=CC([N+](=O)[O-])=C[C-]2[N+](=O)[O-] (configuration not stated) | inactive: 1.5%
CCN(/C(=N/P(=O)(N1CCOCC1)N1CCOCC1)N1CCOCC1)c1ccc(OC)cc1 | inactive: -2.85%
O=C(Nc1cc([As](=O)(O)O)ccc1O)c1ccccc1 | inactive: -1.09%
O=P1(N(CCCl)CCCl)OCCCS1 (configuration not stated) | inactive: 4.71%
O=[N+]([O-])c1cccc(NC2=NCC(CBr)S2)c1 (configuration not stated) | inactive: -0.56%
COC(=O)C1(C)COP(=O)(Nc2ccccc2)OC1 (configuration not stated) | inactive: -0.057%
O=C(O)CNc1ccc([As](=O)(O)O)cc1 | inactive: 0.13%
CC(C)(C)C(=O)NC(Sc1ccncn1)C(Cl)(Cl)Cl (configuration not stated) | inactive: 4.02%
O=[N+]([O-])c1ncn(CCn2ncnc2[N+](=O)[O-])n1 | inactive: -0.447%
